{"source": "patent US20030059763A1", "about": "“Immunoglobulin class switch recombination” (priority 2001, published 2003)", "key": {"[1]": {"test_system": "Ramos 2G6/XF-5a.1 cells", "test": "Substrate switch recombination (SSR), GFP positive cells by FACS, construct XF-5a", "type": "cell-based, human", "details": "XF-5a / XF-5a.1 cells; antibodies 1 μg/ml, cytokines 5 ng/ml alone or with CD40 mAb", "description": "pXF-5a: A PCR amplified 356 bp fragment containing Iε exon and its 5′ promoter region (pIε) was inserted into Xho I and Xba I sites in pXF-1.\nThe backbone of our switch substrate contained 1.6 Kb of the human Sμ (Zhang and Cheah, 2000, supra) and 1.8 Kb of the human Sγ2 regions (Mills et al, 1995, supra) under the transcriptional control of the CMV (pCMV) and the SV40 promoters (pSV40) respectively. A RSV LTR enhancer/promoter (pRC/RSV-LTR) and a GFP gene under the control of an internal ribosome entry site (IRES) were interposed between Sμ and Sγ2 in the reverse transcriptional orientation (FIG. 1A). Thus, the GFP gene will not be expressed within the gennline configuration of the construct. […] Since the GFP gene is expressed only after the switch recombination (recombination or inversion, FIG. 1A) between the Sμ and Sγ2, switch recombination can be monitored in the cultured living cells in “real-time” by fluorescence microscopy. Furthermore, the frequency of switch recombination can be quantitatively measured by flow cytometry. […]\nThe expression of GFP in cell lines stably transfected with switch vectors following various stimulated culture conditions was measured by either single- or dual-color flow cytometry (FACS Core laboratory, UCLA). The data were analyzed with FCS express software (De Novo software Inc, Thornhill, Ontario, Canada)."}, "[2]": {"test_system": "Ramos 2G6 cells stably transfected with XF-1", "test": "Substrate switch recombination (SSR), GFP positive cells by FACS, construct XF-1", "type": "cell-based, human", "details": "XF-1 cells; cytokines alone or in combination with CD40 mAb", "description": "The backbone of our switch substrate contained 1.6 Kb of the human Sμ (Zhang and Cheah, 2000, supra) and 1.8 Kb of the human Sγ2 regions (Mills et al, 1995, supra) under the transcriptional control of the CMV (pCMV) and the SV40 promoters (pSV40) respectively. A RSV LTR enhancer/promoter (pRC/RSV-LTR) and a GFP gene under the control of an internal ribosome entry site (IRES) were interposed between Sμ and Sγ2 in the reverse transcriptional orientation (FIG. 1A). Thus, the GFP gene will not be expressed within the gennline configuration of the construct. […] Since the GFP gene is expressed only after the switch recombination (recombination or inversion, FIG. 1A) between the Sμ and Sγ2, switch recombination can be monitored in the cultured living cells in “real-time” by fluorescence microscopy. Furthermore, the frequency of switch recombination can be quantitatively measured by flow cytometry.\nTo test the potential roles of DNA sequences that may control or regulate the processes involved in switch recombination, the DNA fragments of interest were engineered into the basic switch construct (XF-1) to generate a series of modified switch constructs as diagrammed in the FIG. 1B. […] The integrity and copy number of the constructs were determined by Southern Blot analysis and PCR. […]"}}}
{"substance": "IL-2: cytokine", "values": [{"measurement": "effect on SSR", "setting": "[1]", "value": "did not increase"}, {"measurement": "effect on SSR frequency", "setting": "[2]", "value": "did not increase"}]}
